{"sequences": {"note": "By UniProt entry, the sequences of proteins in these tests, tags left out.", "UniProt O95977, whole entry": "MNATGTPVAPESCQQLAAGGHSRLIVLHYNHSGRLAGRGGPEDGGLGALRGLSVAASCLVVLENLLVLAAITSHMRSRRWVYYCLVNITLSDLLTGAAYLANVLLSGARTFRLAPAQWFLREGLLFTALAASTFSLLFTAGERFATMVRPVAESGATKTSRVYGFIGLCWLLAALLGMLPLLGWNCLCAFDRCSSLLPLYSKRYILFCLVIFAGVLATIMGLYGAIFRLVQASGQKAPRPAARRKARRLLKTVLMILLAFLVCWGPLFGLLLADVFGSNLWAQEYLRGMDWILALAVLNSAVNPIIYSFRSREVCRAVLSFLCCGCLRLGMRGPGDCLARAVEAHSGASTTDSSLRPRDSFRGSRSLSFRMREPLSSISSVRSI"}, "source": "PubChem BioAssay AID1510", "about": "(The Scripps Research Institute Molecular Screening Center, 2009)", "note": "The entries are a selection whose mix differs from that of the whole data set. Calls of active or inactive are those of the source. Rule as the data show it: active = inhibition above about 29%; inactive = the rest.", "data": [{"target": "Sphingosine 1-phosphate receptor 4 (Homo sapiens) (UniProt O95977)", "experiment": "S1P4 receptor antagonists, primary screen, cell-based (AID 1510);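 also: 0% = wells stimulated with agonist and 100% = vehicle wells without agonist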", "settings": "S1P4-expressing cells, antagonist mode, reporter read-out; at 4.98 µM; active compounds read high", "values": [{"molecule": "Cc1c2non([O-])c-2c(C)[n+](=O)[n+]1[O-]", "inhibition": "inactive: 10.4%"}, {"molecule": "CN(C(=O)Cc1ccc(Cl)c(Cl)c1)[C@@H]1CCCC[C@H]1N1CCCC1", "inhibition": "inactive: 16.2%"}]}]}
